{"source": "ChEMBL document CHEMBL5543160", "about": "“Psychoplastogenic DYRK1A Inhibitors with Therapeutic Effects Relevant to Alzheimer's Disease” (J Med Chem, 2024)", "target": "Dual specificity tyrosine-phosphorylation-regulated kinase 1A (Homo sapiens, UniProt Q13627)", "data": [{"compound": "CCN1/C(=C/C(C)=O)Sc2ccc(OC)cc21", "values": [{"measurement": "IC50", "value": 57.3, "unit": "nM"}]}]}
